From ChEMBL document CHEMBL1151445, “Molecular epidemiology and mechanisms of carbapenem resistance in Pseudomonas aeruginosa isolates from Spanish hospitals” (2007)

System: Escherichia coli
Details: XL1-Blue

## GENTAMICIN
  MIC: 0.5 µg/mL
